Experimental data from patent US4008233A (priority 1972, dated 1977).

Columns and labels:
[1] = tested on: mouse; experiment: Acute toxicity; conditions: hydrochloride, observation 48 hours
[2] = Aggressive mouse test; format: in vivo, male mice (NMRI); conditions: 30 minutes after administration
[3] = Phenyl-p-quinone writhing test (analgesia); format: in vivo, male mice; conditions: mouse, hydrochloride
[4] = Temperature-reducing effect (decrease in body temperature); format: in vivo, male rats (SIV; printed "rate"); conditions: rat, dose not given, 2 hours

In the case of `CCOC(=O)[C@@]1(c2ccccc2)CCC=C[C@@H]1N(C)C` (relative stereo), the “Acute Toxicity LD 50” value ([1]; i.g.) was 437 mg/kg, the “Acute Toxicity LD 50” value ([1]; s.c.) was 490 mg/kg and the “Aggressive Mouse ED 50” value ([2]; i.g.) was “no effect”. For the same molecule, the “Aggressive Mouse ED 50” value ([2]; s.c.) was “no effect”, the “Analgesia ED 50 Phenyl-p-Quinone Writhing Test” value ([3]; i.g.) was 14.0 mg/kg and the “Analgesia ED 50 Phenyl-p-Quinone Writhing Test” value ([3]; s.c.) was 15.9 mg/kg. For the same molecule, the “Decrease in Body Temperature in ° C” value ([4]; i.g.) was “no effect” and the “Decrease in Body Temperature in ° C” value ([4]; s.c.) was “no effect”.
